Target: jack bean urease (JBU) (Canavalia ensiformis, UniProt P07374)
Test: tandem-well NH3 assay, salicylic acid-hypochlorite
Type: biochemical
Details: 25 mM urea, 100 μM NiCl2, 50 mM phosphate pH 7.4, 37 °C, 30 min preincubation

Question: Which IC50 does the source give for O=C1c2ccccc2C(=O)N1c1ccccc1 here?
Answer: > 10 µM

Question: With O=c1c2ccccc2sn1-c1ccccc1 as the molecule, how does the IC50 read?
Answer: 1 µM

Reference: publication doi:10.1101/2021.01.05.425432v2 (biorxiv, 2021)
